AlphaSeq binding of Ab-14 heavy chain variants to a spike HR2 peptide

From the AlphaSeq antibody data of Engelhart et al. 2022 (doi:10.1038/s41597-022-01779-4), copy in the FLAb collection.

Target peptide (SARS-CoV-2 spike, HR2 region): PDVDLGDISGINAS

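The starting antibody came from a phage panning campaign against this peptide. In library AAYL49, one, two or three CDR residues were substituted; doubles and triples were drawn at random. In AlphaSeq, yeast of one mating type display the scFv and yeast of the other type display the target. The frequency of each diploid, read from paired DNA barcodes, reflects how well the two displayed proteins bind. Each replicate has its own calibration line, from reference interactions of the BCL2 family. Each pool was mated in three replicate cultures.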

Parent scFv Ab-14: VH joined to VL by a (GGGGS)3 linker. Changes lie in the heavy chain CDRs alone.
VH: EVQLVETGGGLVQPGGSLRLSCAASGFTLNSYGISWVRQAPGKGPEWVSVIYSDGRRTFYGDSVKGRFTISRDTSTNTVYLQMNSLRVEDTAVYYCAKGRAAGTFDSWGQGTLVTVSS
VL: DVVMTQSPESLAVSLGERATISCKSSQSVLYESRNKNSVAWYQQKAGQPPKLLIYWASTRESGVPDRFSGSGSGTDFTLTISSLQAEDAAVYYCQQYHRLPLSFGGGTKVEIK

The parent's heavy chain CDRs are GFTLNSYGIS, VIYSDGRRTFYGDSVK, GRAAGTFDS; each variant's own CDRs replace them letter for letter.
This list gathers variants with a substitution at G55 (VH, numbered from residue 1).
Values are log10 of the apparent Kd in nM; lower means stronger binding.
Replicates are averaged; those with no signal do not enter the mean.
"nd" marks a missing value. The strain was present, yet no cells mated with the target were sequenced in any replicate, which points to weak or no binding.
The list is sorted by this average, lowest first, undetected variants last.
As a blank, each scFv also met three strains without target: over library AAYL49, 15% of these pairings were detected, typically at 4.06 and seldom below 2.83.

Variant GFTLNSYGIS, VIYSDWRRTFYGDSVK, GFAAGAFDS showed 2.58 (1 of 3 replicates).
Variant GFTLNSYGIS, VIDSDPRYTFYGDSVK, GRAAGTFDS showed 3.27 (1 of 3 replicates).
Variant GFTLNSAGIS, VIYSDCRRTFYGDSVK, GRAAFTFDS showed 3.97 (1 of 3 replicates).
Variant GFTLNSYGIS, VIYSRLRRTFGGDSVK, GRAAGTFDS showed 4.57 (2 of 3 replicates).
Variant GFTINSYGIH, VIYSDKRRTFYGDSVK, GRAAGTFDS showed 4.60 (1 of 3 replicates).
Variant GFTLNSYGIS, VYYSDHRRTFYGDSVK, GRAAGTFDP showed 4.78 (1 of 3 replicates).
Variant GFTPNSYGIS, VIYSDTRRPFYGDSVK, GRAAGTFDS showed 4.81 (2 of 3 replicates).
Variant GFTLNSYGIS, WIYSDRRMTFYGDSVK, GRAAGTFDS showed 4.85 (1 of 3 replicates).
Variant GETLNSYGIS, VIYSDVRRTFYGDSVK, GRAAHTFDS showed 4.88 (2 of 3 replicates).
Variant GFTLNSYGIS, VIYSDDRMTFYGDSVK, GRAAGTFDS showed 4.92 (3 of 3 replicates).
Variant RFTLNSYGIS, VIYSDYRRTRYGDSVK, GRAAGTFDS showed 5.35 (2 of 3 replicates).
Variant GFTLNSYGIS, VIQSDCRRTFYGDSVK, GRAAGDFDS showed 5.36 (2 of 3 replicates).
Variant GFTLNSYGIS, VIKSDERRTFYGDSVK, GRAAKTFDS showed 5.37 (1 of 3 replicates).
Variant GFTLNSYQIS, VIYSDIRDTFYGDSVK, GRAAGTFDS showed nd (0 of 3 replicates).
Variant GFTLNSYGIS, VIYSDLRRTFYGDSVK, GGNAGTFDS showed nd (0 of 3 replicates).
Variant GFTLNSYGIS, VIYSDTRRTFYGDSVK, GRAAGMFDS showed nd (0 of 3 replicates).
Variant GFTLNSYGKW, VIYSDYRRTFYGDSVK, GRAAGTFDS showed nd (0 of 3 replicates).
Variant GFTLNSYGIS, VIYSDQRRTFYGDSVK, GRAAGTYDS showed nd (0 of 3 replicates).
Variant GFTLNSYGIS, VIYSDYRRTFYGDSVK, GRAAGTFDS showed nd (0 of 3 replicates).
Variant GFTLNSYGIS, VIYSDTRRTFYGDSVE, GRAAGRFDS showed nd (0 of 3 replicates).
Variant GFTLNSYMIS, VIYSVKRRTFYGDSVK, GRAAGTFDS showed nd (0 of 3 replicates).
Variant GFTLNSYGIS, VIYSDDRRTFYFDSVK, GRAAGNFDS showed nd (0 of 3 replicates).
Variant GFTLNSYGIS, VIYSDHRNTFYGDCVK, GRAAGTFDS showed nd (0 of 3 replicates).
Variant GFTRNSYGIS, VIYSDWRRTFYGDSVK, GRAAGTFDS showed nd (0 of 3 replicates).
Variant GFTLNVYGIS, VIYSMLRRTFYGDSVK, GRAAGTFDS showed nd (0 of 3 replicates).
Variant GFTLNSYGIS, VIYSDKRRTFYGDKVK, GRAVGTFDS showed nd (0 of 3 replicates).
Variant GFTLNSYFIS, VIYSDMRRTFYGDSVK, GRATGTFDS showed nd (0 of 3 replicates).
Variant GFGLNSYGGS, VIYSDVRRTFYGDSVK, GRAAGTFDS showed nd (0 of 3 replicates).
Variant GFTLNSYGIP, VIYSDERRTQYGDSVK, GRAAGTFDS showed nd (0 of 3 replicates).
Variant GFTLNSYGIS, VIYSDWRRTFYGDSSK, GRAAGTFDS showed nd (0 of 3 replicates).
Variant GFTLNSYGIS, VICSDERRTFYGDSVK, RRAAGTFDS showed nd (0 of 3 replicates).
Variant GFTLNAYWIS, VIYSDQRRTFYGDSVK, GRAAGTFDS showed nd (0 of 3 replicates).
Variant GFTLNSYGIS, VIYSDSRRTFYGDSVK, GRAAGTFDS showed nd (0 of 3 replicates).
Variant CFTLNSYGIS, VIYSDAGRTFYGDSVK, GRAAGTFDS showed nd (0 of 3 replicates).
Variant GFTPNSYGIS, VIYSDWRRTFYGDSVK, GRAAGTFTS showed nd (0 of 3 replicates).
Variant GFTLNSYGIS, VIYSDINRTFYGDSVK, GRCAGTFDS showed nd (0 of 3 replicates).

For reference, the parent read 0.65 as the reference entry and 4.11 (one replicate of three) as a member of this library.